The values that follow come from US4454158A, “Allyl amine MAO inhibitors” (Merrell Toraude et Compagnie, priority 1981, dated 1984).

One test relates to MAO-A and MAO-B. As to conditions: literature, cited from earlier work; for dose-dependence of MAO selectivity (in words): lower vs higher dosages.
In test [1] the test system is MAO. Put plainly: Inhibition of MAO - In vitro (14C p-tyramine substrate, partially purified rat brain mitochondria). Type of test: biochemical. Particulars: tested as hydrochloride salt, read-out: IC50 (MAO inhibitory activity - In vitro). An excerpt: (A) The ability of a compound of Formula I or II to inhibit MAO can be determined in vitro by the method of A. Christmas et al, Br. J. Pharmacol. 45, 490 (1972) in partially purified mitochondria from rat brain using ^14 C p-tyramine as the substrate.

For test [2], the system named is MAO. The test is described as follows: Inhibition of MAO - Ex vivo, rat (14C p-tyramine substrate). Particulars: 18 hr. Type of test: in vivo. As for the experimental part: The ability of a compound of Formula I or II to inhibit MAO can be determined ex vivo by the following procedure:
The test compound is administered intraperitoneally (ip), intravenously (iv), or orally (po) to rats or mice and the animals are killed at various times after treatment. […] MAO activity is determined in the homogenates using ^14 C p-tyramine, as the substrate. […] Selectivity can be determined by repeating the above-described test using either ^14 C 5-hydroxytryptamine (for MAO-A) or ^14 C phenethylamine (for MAO-B) as the substrate for determining the % inhibition

The test system of the next test is MAO-B versus MAO-A. Put plainly: Selectivity of MAO inhibitors - In vitro (14C 5-hydroxytryptamine for MAO-A, 14C phenethylamine for MAO-B). Format: biochemical. As to conditions: rat brain mitochondria. As to the method:
Mitochondria are prepared from rat brain by homogenation in phosphate buffer (0.1 M, pH 7.2) followed by differential centrifugation. The mitochondria are suspended in the same buffer, the test compound is added at the desired concentration, and the system is incubated. […] Christmas, et al, supra).
Selectivity is expressed as the ratio of the inhibitory activity against MAO-B versus the inhibitory activity against MAO-A.

Each structure is given as a SMILES string.

One may read the IC50 as the point on the concentration scale where inhibition reaches its midpoint.

Turning to `C#CCN(C)[C@H](C)Cc1ccccc1` [L-deprenyl, reference compound], the “preferential inhibition of MAO-A or MAO-B (in words)” value in the test on MAO-A and MAO-B is recorded as “MAO-B is preferentially inhibited”. In addition, in the test with MAO-A and MAO-B, the “dose-dependence of MAO selectivity (in words)” value is given as “selective inhibitors at lower dosages, but are not selective inhibitors at higher dosages”. In addition, the 50% inhibitory concentration (IC50) with MAO [1] is 100 nM. For the same compound, the “% Inhibition of MAO - Brain” value is listed as 16% in the test on MAO [2] (0.5 mg/kg po), 39% in the test on MAO [2] (5.0 mg/kg po) and 88% with MAO [2] (10.0 mg/kg po). The “Selectivity (ratio of inhibitory activity against MAO-B versus MAO-A)” value in the test on MAO-B versus MAO-A is 100.
Consider `C#CCN(C)CCCOc1ccc(Cl)cc1Cl` [clorgyline, reference compound], for which, in the test on MAO-A and MAO-B, the “preferential inhibition of MAO-A or MAO-B (in words)” value was “MAO-A is preferentially inhibited” and the “dose-dependence of MAO selectivity (in words)” value is given as “selective inhibitors at lower dosages, but are not selective inhibitors at higher dosages”. Also, the “Selectivity (ratio of inhibitory activity against MAO-B versus MAO-A)” value in the test with MAO-B versus MAO-A is listed as 0.001.
